IC50 data for three molecules are collected here from patent publication US20100272750A1.

Among the targets are HLA A3101 (human); HLA A6801 (human); HLA A2402 (human).
Holding throughout (test): 125I-probe competition, purified HLA

In the test with HLA A3101 (human), MVMLMLVRFK (modifications not checked) [HPV31.E1.253] came in with a half-maximal inhibitory concentration (IC50) of 53 nM.
Take ISFAGIVTK (modifications not checked) [HPV31.E2.205]: the IC50 with HLA A6801 (human) was 16 nM.
On to GYNTFYIEF (modifications not checked) [HPV18.E2.168], for which the IC50 with HLA A2402 (human) is 16 nM.
